Source: PubChem
Only some compounds are listed: those with a hit (about 0.43% of all), similar ones and a draw of the others.
EPAC1 ag – activates human EPAC1 exchange factor; EPAC1 agonist qHTS, biochemical assay; response scale: 100% = response to 6.5 mM cAMP; 360,000 tested, 0.073% active; Potency, µM (titrated, usually from 154 µM), for the others: top-dose activation, usual class: activators; O95398; note: nearly all actives have a fitted effect of over 60% in size
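Nucleotide exchange by EPAC1 (100 nM) on Rap1B–BODIPY-GDP (250 nM) in the presence of 50 uM GDP is tracked fluorescently at 480/540 nm over 30 min. Signals are normalized to a 6.5 mM cAMP control.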
EPAC1 antagonist – EPAC1 (human) antagonism. EPAC1 GEF assay, Rap1b-BODIPY-GDP exchange fluorescence. O95398. Potency, µM (top dose mostly 115 µM), for inactives: at the highest dose activity change, negative = inhibition, most hits filed as inhibitors. 360,000 tested, 0.14% active;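 note: plate controls were vehicle for no effect and positive control for full effect; nearly all actives have a fitted effect of over 50% in size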
EPAC2 antag – EPAC2 (human) antagonism | EPAC2 GEF exchange of Rap1B-BODIPY-GDP, fluorescence | Potency, µM (series often up to 114 µM), without a hit: at the highest dose activity, negative = inhibition, actives largely listed as inhibitors | 360,000 tested, 0.18% active | AID 720708; note: % is set by controls: 0 for no effect and ±100 for the full control effect; nearly all actives have a fitted effect of over 45% in size
EPAC2 ag – activates human EPAC2 exchange factor. Potency, µM (doses to about 154 µM), for the others: at the top dose activation, usual class: activators. 360,000 tested, 0.079% active. Q8WZA2. EPAC2 activation, biochemical qHTS; response scale: 100% = 6.5 mM cAMP response; note: nearly all actives have a fitted effect of over 50% in size
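EPAC2 (100 nM) mixed with Rap1B loaded with BODIPY-GDP (250 nM) plus 50 uM unlabeled GDP; compounds pinned in, 5 min RT, then read every 5 min for 30 min (ex 480, em 540 nm). Normalized to cAMP control.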
Rango-impB inh – Rango-importin beta binding inhibition; Q14974; Rango CFP/YFP FRET sensor + importin beta, 45 min; Potency, µM (series often up to 92.2 µM), without a hit: at the top dose inhibition of complex formation; 340,000 tested, 0.031% active; calls by dose curve;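 note: 0% = DMSO wells and 100% = buffer wells lacking importin beta; nearly all actives have a fitted effect of over 15% in size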
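FRET biosensor Rango (snurportin 1 IBB between N-terminal EYFP and C-terminal Cerulean), 50 nM in PBS/1 mM DTT/0.02% Tween-20/0.1% BSA, preincubated 5 min RT with compound; 0.125 microM importin beta added, 45 min RT, CFP/YFP FRET ratio read.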
Rango release inh – inhibition of RanGTP-driven Rango-importin beta dissociation. O95149+P62826. Biochemical FRET Rango-importin beta, RanGTP-induced dissociation. AID 540253. 340,000 tested, 0.071% active. Potency, µM (highest dose often 46.1 µM), without a hit: top-dose activity change, negative = inhibition; calls by dose curve; note: % of control where 0% means no effect; nearly all actives have a fitted effect of over 45% in size
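FRET read at 45 min, room temperature: inhibitors block the CFP/YFP signal rise when RanGTP (0.6 uM Ran, 2 mM GTP, 0.2 uM RCC1) frees Rango (0.1 uM) from importin beta (0.25 uM). Pre-read after 5 min compound exposure flags interference.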
* = called active by the depositor; ? = inconclusive; nt = not tested or not shown. Unless noted, calls come from the whole dose curve; as a rule, active = well fitted curve in the direction sought with a large enough effect; inconclusive = small, poorly fitted or top-dose-only effect, or another doubt; inactive = no such curve, though single readings can be large; an effect the other way counts as inactive or inconclusive. Potency is the fitted concentration of half-maximal effect.

1: COc1cccc(-c2ccc3ncnc(N(C)Cc4ccco4)c3c2)c1
2: COc1cccc(-c2ccc3ncnc(NCc4ccc5c(c4)OCO5)c3c2)c1
3: COc1cccc(NC(=O)CN(C)C(=O)CNC(=O)c2ccc(Oc3ccccc3)cc2)c1
4: CCOC(=O)c1c(CSc2ccccc2)n(C)c2cc(Br)c(OC)c(O)c12
5: CCOC(=O)c1c(CSc2ccccc2)n(C)c2cc(Br)c(OCC(O)CNC(CO)(CO)CO)cc12 (stereo not given)
6: O=C1N=c2ccccc2=C1c1sc(Nc2ccc(O)cc2)nc1O
7: O=C1N=c2ccccc2=C1c1sc(Nc2cccc(O)c2)nc1O
8: CCOC(=O)CC(=O)Nc1ncnc2c1C(c1ccccc1)c1c(ccc3ccccc13)O2 (stereo not given)

assay / compound	1	2	3	4	5	6	7	8
EPAC1 ag	5.3%	-15.6%	63.1µM*	10.7%	6.9%	-3.7%	0.9%	12.4%
EPAC1 antagonist	-12.0%	-8.9%	1.1%	4.1%	-10.9%	44.7µM*	3.6%	-7.4%
EPAC2 antag	31.6µM*	11.2%	4.5%	-6.0%	39.8µM*	-26.9%	-17.9%	?
EPAC2 ag	10.6%	13.4%	10.2%	8.5%	?	1.0%	-7.5%	9.0%
Rango-impB inh	-2.1%	-4.9%	0.5%	2.6%	?	-4.1%	-1.6%	-2.7%
Rango release inh	-8.1%	-7.8%	-1.4%	-8.6%	-18.1%	7.4%	11.0%	10.0%

9: Nc1ncnc2c1C(c1ccccc1)c1c(ccc3ccccc13)O2 (stereo not given)
10: COc1cccc(C(C(=O)NC2CCCC2)N2CCN(c3cc(C)nc4ccccc34)CC2)c1OC (stereo not given)
11: CCOC(=O)C1=C(C)N=c2s/c(=C\c3cccn3C)c(=O)n2C1c1cccc(OC)c1OC (stereo not given)
12: Nc1ccc2c(S(=O)(=O)O)cccc2c1S(=O)(=O)O
13: O=C1CCc2cc(NS(=O)(=O)c3ccc([N+](=O)[O-])cc3)cc3c2N1CC3
14: O=C1CCc2cc(NS(=O)(=O)c3ccc([N+](=O)[O-])cc3)cc3c2N1CCC3
15: Cc1cccc(CN2CCN([C@H]3CS(=O)(=O)N[C@@H]3COCc3ccccc3)CC2)c1
16: Cc1cc(C)nc(NS(=O)(=O)c2ccc(NC(=O)CN3C(=O)S/C(=C\c4ccccc4)C3=O)cc2)n1

assay / compound	9	10	11	12	13	14	15	16
EPAC1 ag	-3.5%	-14.3%	22.4%	-2.5%	79.4µM*	-10.6%	-20.8%	5.5%
EPAC1 antagonist	-17.8%	1.7%	3.5%	-17.7%	-7.8%	14.7%	-2.9%	79.4µM*
EPAC2 antag	12.6µM*	3.1%	16.6%	56.2µM*	9.6%	4.2%	13.2%	-11.1%
EPAC2 ag	6.5%	2.7%	112µM*	-1.3%	5.3%	0.4%	1.0%	5.8%
Rango-impB inh	0.7%	nt	?	-1.2%	-0.5%	-2.8%	nt	4.0%
Rango release inh	-4.9%	nt	?	5.1%	38.4%	10.7%	nt	8.4%

17: CC[C@]12C(=O)N(C)C[C@H]([C@@H]3C(=O)N(Cc4ccccc4)C(=O)[C@@H]31)N2C(=O)c1ccc(C(F)(F)F)cc1
18: CC1(C(=O)NS(=O)(=O)c2cccc(C#N)c2)CCN1C(=O)c1ccc(C2CCCCC2)cc1 (stereo not given)
19: CCOc1ccc(NC(=O)/C(C#N)=C/c2ccc(N3CCCC3)c(C)c2)cc1
20: O=C1NC[C@H](CCCCN2CCN(CCc3ccccc3)C(=O)C2=O)N(CCc2ccccc2)C1=O
21: N#Cc1cccc2c1-c1ccccc1/C2=N/NC(N)=S
22: NC(=S)NN=C1c2ccccc2-c2c(F)c(F)c(F)c(F)c21
23: O=C(COC(=O)/C=C/c1cccs1)Nc1ccc(F)cc1
24: CCc1cccc(NC(=O)COC(=O)/C=C/c2cccs2)c1

assay / compound	17	18	19	20	21	22	23	24
EPAC1 ag	-12.0%	-17.5%	112µM*	0.3%	-1.1%	-7.2%	-5.0%	112µM*
EPAC1 antagonist	-9.2%	-10.7%	89.8%	8.2%	?	-13.8%	-1.1%	-15.0%
EPAC2 antag	-3.2%	-1.6%	15.8%	0.2%	17.0%	17.0%	12.0%	4.1%
EPAC2 ag	-2.9%	-1.6%	0.7%	1.2%	14.3%	7.6%	-0.1%	-2.2%
Rango-impB inh	-1.1%	nt	?	nt	1.1%	73.1µM*	-0.3%	-2.9%
Rango release inh	-18.8%	nt	?	nt	-8.0%	1.5%	-12.0%	12.5%

25: Cc1cc(C)c2nc(C)cc(Nc3ccc(C(=O)NCCO)cc3)c2c1
26: CC(=O)c1ccc(Nc2cc(C)nc3c(C)cc(C)cc23)cc1
27: CC(=O)Nc1cccc(-c2ccnc3c2CC(C(=O)Nc2ccc(C(C)C)cc2)O3)c1 (stereo not given)
28: O=C(O)c1ccc(N/N=C/c2c(F)cccc2Cl)cc1
29: O=C(N/N=C/c1c(F)cccc1Cl)C1CC1
30: CC1(C)c2ccccc2N(CC(N)=O)C12C=Cc1ccccc1O2 (stereo not given)
31: Cc1cc(Br)c2c(c1)[C@](O)(c1cn(C)c3ccccc13)C(=O)N2C
32: CN1C(=O)[C@@](O)(c2cn(C)c3ccccc23)c2ccccc21

assay / compound	25	26	27	28	29	30	31	32
EPAC1 ag	-10.4%	5.8%	0.8%	-6.6%	7.8%	-8.3%	2.9%	10.6%
EPAC1 antagonist	-2.1%	0.6%	-12.3%	11.5%	-4.3%	-18.2%	-8.0%	4.7%
EPAC2 antag	20µM*	-18.9%	-10.2%	39.8µM*	1.0%	17.8µM*	22.4µM*	-5.0%
EPAC2 ag	6.2%	24.5%	3.7%	-7.2%	13.0%	-1.1%	5.1%	3.1%
Rango-impB inh	3.3%	0.2%	nt	1.1%	-2.5%	-0.9%	nt	nt
Rango release inh	-2.1%	-16.4%	nt	4.5%	-22.4%	33.9%	nt	nt

33: CSc1ccc(CN2CCC2(C)C(=O)Nc2cccc(Oc3ccccc3)c2)cc1 (stereo not given)
34: COc1ccc(Nc2c(CCc3ccccc3)nc3nc(C)cc(C)n23)cc1
35: O=C(C(=O)N1CCN(c2ccncc2)CC1)c1cccc(Br)c1
36: CC[C@H](C)/C=C/C1=CC2=C(Cl)C(=O)[C@@]3(C)OC(=O)C(C(=O)[C@H](C)[C@@H](C)O)=C3C2=CO1
37: CCc1ccc(C=C2SC(=S)N(CCCC(=O)Nc3ccc(C(=O)O)cc3)C2=O)cc1
38: CCc1ccc(/C=C2/SC(=S)N(CCCC(=O)Nc3ccccc3C(=O)O)C2=O)cc1
39: COc1ccccc1C(=O)NNC(=O)CCCN1C(=O)/C(=C/c2cccs2)SC1=S
40: CC1(C(=O)NS(=O)(=O)C2CC2)CCCN(C(=O)c2cccc(OC(F)(F)F)c2)C1 (stereo not given)
41: CCSc1ccc2c(c1)N(CCCN1CCN(C)CC1)c1ccccc1S2

assay / compound	33	34	35	36	37	38	39	40	41
EPAC1 ag	2.3%	9.6%	-3.9%	-21.0%	17.8%	2.4%	1.6%	20.9%	-6.5%
EPAC1 antagonist	2.1%	-1.1%	-20.8%	50.1µM*	?	39.8µM*	6.6%	?	-16.9%
EPAC2 antag	9.2%	-27.6%	2.8%	?	14.2%	?	14.8%	12.7%	-9.7%
EPAC2 ag	14.9%	2.7%	0.3%	-14.3%	5.9%	-6.3%	100µM*	-1.4%	5.9%
Rango-impB inh	nt	nt	nt	?	nt	-0.5%	5.2%	nt	-0.3%
Rango release inh	nt	nt	nt	?	nt	17.5%	-18.5%	nt	10.7%
